Consider 1 compound from patent US12559474B2, “Triazine derivatives having virus replication inhibitory activity and pharmaceutical composition comprising the same” (priority 2021, dated 2026).

SMILES strings stand for the structures.

The target of this assay is SARS-CoV-2 3CL protease (Severe acute respiratory syndrome coronavirus 2, UniProt P0DTD1). Description: biochemical. Particulars: 50% SARS-CoV-2 3CL protease inhibitory concentration, given as class symbols.

A word on the IC50: it is the point on the concentration scale where inhibition reaches its midpoint. Higher therefore signals lower potency. The compound `Cn1cnc(Cn2c(=O)nc(Nc3cc4cn(C)nc4cc3Cl)n(Cc3cc(F)ccc3F)c2=O)n1` [II-0208] returned a half-maximal inhibitory concentration (IC50) of less than 100 nM.
